# scFv variants of Ab-14 (light chain) against a SARS-CoV-2 spike peptide

From the AlphaSeq antibody data of Li et al. 2023 (doi:10.1038/s41467-023-39022-2), copy in the FLAb collection.

The target is the same throughout: PDVDLGDISGINAS, from the HR2 region of SARS-CoV-2 spike.

Parent scFv Ab-14: VH joined to VL by a 15-residue (Gly4Ser)3 linker. Changes lie in the light chain CDRs alone.
VH: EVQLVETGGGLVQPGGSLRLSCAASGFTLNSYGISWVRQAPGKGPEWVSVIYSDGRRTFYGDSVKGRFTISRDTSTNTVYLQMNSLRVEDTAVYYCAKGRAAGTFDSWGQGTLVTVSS
VL: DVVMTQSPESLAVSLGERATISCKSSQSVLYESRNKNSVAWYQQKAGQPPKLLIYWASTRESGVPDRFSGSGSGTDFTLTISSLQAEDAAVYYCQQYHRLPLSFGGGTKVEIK

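The parent was found by panning a naive human phage display library on the peptide. This is the validation round: designs drawn from the data on random variants, tested in the same kind of assay. Their group label is 14L_GP_Gibbs (GP: Gaussian process model; Gibbs: Gibbs sampling; a sequence that several methods proposed may carry one label only). Affinity was read by AlphaSeq, a pooled yeast mating assay with surface-displayed partners. After mating in shaken culture at 30 °C for 16 h, diploids were selected and their barcode pairs sequenced. A regression on co-assayed BCL2-family reference pairs converts the normalised counts of each replicate to an apparent Kd. The assay was run in six technical replicates.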

Positions count from residue 1 of the parent VL; S25L puts L in place of S.
Numbers give log10(Kd / nM), so 0 is 1 nM and 3 is 1 µM. Smaller is tighter.
A mean of the replicates is given; it leaves out those without a signal.
A pair that was not seen in that replicate is written "n.d."; this usually means weak binding, but a binder can also be missed.
Empty control strains, which show no peptide, gave a signal in 4% of pairings with all light chain designs; the median was 2.64 and 95% of these signals were weaker than 1.59. No background was subtracted. The control count says in how many pairings with the empty strains this scFv gave a signal, with their mean in brackets.
Values of this round are not directly comparable with the first-round values of the same sequences.
In the paper, a design with two or fewer of six values counts as a poor binder.

| changes | log10 Kd (nM) by replicate | log10 Kd (nM), mean | control signals |
|---|---|---|---|
| S25L+S26Q+V29Q+K36T+W56Q+T59Q+S62Q | -0.22 -0.17 -0.45 -0.56 -0.41 -0.33 | -0.36 | 0 of 18 |
| S25L+S26P+Q27V+S28L+V29K+E32W+W56E | n.d. 2.24 2.32 1.65 2.06 4.12 | 2.48 | 0 of 18 |
| S25L+S26Q+Q27W+V29W+E32M+K36C+W56D+T59Q | 0.74 0.60 0.68 0.46 0.59 0.75 | 0.64 | 1 of 18 (2.64) |
| K24S+S25L+S26Q+V29W+E32Q+W56N+S62W | 0.29 0.06 0.13 -0.12 0.02 0.15 | 0.09 | 3 of 18 (3.14) |
| S25W+Q27C+V29Q+E32D+R34A+W56N+E61M+S62M | 0.43 0.08 0.21 0.13 -0.11 0.41 | 0.19 | 2 of 18 (1.91) |
| S25L+Q27Y+V29W+L30P+Y31G+W56D+S58G | 1.09 0.47 0.14 0.29 0.29 0.58 | 0.48 | 0 of 18 |
| S25W+S26M+L30D+W56N+A57G+S58Q+S62A | -0.26 -0.57 -0.56 -0.55 -0.60 -0.37 | -0.49 | 0 of 18 |
| S25A+S26Q+Q27D+S28G+V29E+N35D+K36D+W56D+T59K+E61L | -0.24 -0.03 -0.41 -0.37 -0.31 0.08 | -0.21 | 0 of 18 |
| S25M+Q27M+S33D+N35H+K36Q+W56N+E61L+S62D | 0.52 0.25 0.35 0.34 0.30 0.41 | 0.36 | 3 of 18 (3.23) |
| S25G+S26Q+V29Q+R34Q+K36W+W56N+T59K | 0.18 0.25 0.26 -0.12 0.03 0.26 | 0.14 | 2 of 18 (2.41) |
| S25M+V29N+L30P+K36W+W56N+T59K | 0.58 0.38 0.61 0.17 0.50 0.48 | 0.45 | 0 of 18 |
| S25I+S26M+V29Y+Y31G+S33M+K36C+W56N | 0.68 0.80 0.59 0.52 0.57 0.70 | 0.64 | 0 of 18 |
| S25V+S26Q+Q27W+S28L+V29W+L30P+E32W+K36W+W56N+S62Q | 0.13 0.13 0.16 -0.09 -0.04 0.11 | 0.07 | 1 of 18 (2.24) |
| S25L+Q27P+V29E+L30Q+W56N+T59L | 0.20 -0.13 0.18 -0.19 -0.02 0.14 | 0.03 | 1 of 18 (2.51) |
| K24A+L30M+Y31G+S33E+W56A+S62V | 0.24 0.28 0.32 0.14 0.33 0.17 | 0.25 | 2 of 18 (3.40) |
| S25F+S26E+V29H+L30G+W56N+H98W | 0.30 0.21 0.09 0.09 0.21 0.20 | 0.18 | 4 of 18 (2.67) |
| S25I+S26P+V29Y+Y31G+S33W+K36C+W56N+T59Q | 0.57 0.15 0.22 -0.12 -0.03 0.32 | 0.18 | 1 of 18 (0.94) |
| S25F+S26E+Q27M+S28L+V29W+L30D+S33D+K36L+W56N+S62D | 0.42 0.15 0.11 0.09 0.24 -0.02 | 0.17 | 1 of 18 (2.13) |
| S25L+S26Q+L30G+S38A+W56E+A57G+T59Q | -0.24 -0.41 -0.36 -0.45 -0.58 -0.26 | -0.38 | 1 of 18 (1.63) |
| S25L+S26D+S28D+V29D+S33N+K36C+W56Q | 0.63 0.35 0.21 0.70 0.41 0.61 | 0.48 | 0 of 18 |
| S25I+V29H+K36W+S38A+W56E+E61P | 0.29 0.07 0.33 0.08 0.24 0.39 | 0.23 | 1 of 18 (3.30) |
| K24I+S25V+V29M+Y31G+W56H+S62N | 0.10 0.09 0.13 0.05 0.04 0.19 | 0.10 | 5 of 18 (2.91) |
| S25M+Q27K+S28M+L30M+Y31E+E32G+W56E+T59Q+S62E | 0.07 -0.34 -0.43 -0.26 -0.23 -0.12 | -0.22 | 0 of 18 |
| S25V+V29N+L30G+Y31G+N35M+W56H+T59Q | n.d. 2.97 n.d. 1.96 1.50 1.78 | 2.05 | 0 of 18 |
| S25V+S26L+Y31L+K36S+W56N+S62L | 0.32 0.19 -0.02 -0.04 -0.08 0.26 | 0.11 | 1 of 18 (2.43) |
| S25I+S28A+V29Y+Y31G+S33D+W56N+S58N+T59Q | 0.13 -0.09 -0.07 -0.14 -0.53 -0.21 | -0.15 | 0 of 18 |
| S25M+V29E+L30D+S33D+K36C+S38A+W56N+T59Q+S62E | 0.19 0.18 0.30 0.01 0.32 0.42 | 0.23 | 0 of 18 |
| S25V+S28E+V29Q+L30D+E32Q+W56D+T59Q | -0.05 -0.15 -0.39 -0.32 -0.33 -0.06 | -0.22 | 3 of 18 (3.08) |
| S25W+S26E+Q27E+S28G+V29W+W56E+A57G | 0.30 0.09 -0.07 -0.21 -0.16 0.21 | 0.03 | 1 of 18 (3.89) |
| S25I+Q27G+V29E+Y31E+T59V+S62E | 0.47 0.54 0.50 0.18 0.16 0.41 | 0.38 | 0 of 18 |
| S25L+S28Q+V29N+N35M+K36M+W56M+T59Q | 0.42 0.45 0.45 0.17 0.53 0.36 | 0.40 | 1 of 18 (2.80) |
| S25F+S26D+S28E+L30W+W56G+T59Q+E61C | 0.38 0.51 0.27 0.20 0.47 0.34 | 0.36 | 1 of 18 (3.35) |
| Q27M+V29W+L30E+K36S+W56H+S62L+S103I | 0.44 0.39 0.49 0.35 0.46 0.89 | 0.50 | 1 of 18 (2.18) |
| S25L+S26Y+L30M+Y31L+K36V+W56S+T59Q+S62E | -0.12 -0.37 -0.37 -0.51 -0.40 -0.13 | -0.32 | 1 of 18 (3.22) |
| S25L+V29D+S38N+W56N+A57C+T59L+S62M+Q96D | 1.06 1.08 1.04 1.11 0.99 1.08 | 1.06 | 0 of 18 |
| S25L+L30E+N35L+S38N+W56N+T59Q+E61L+S62E | 0.60 0.60 0.83 0.45 0.40 0.69 | 0.59 | 1 of 18 (2.81) |
| S26F+V29E+Y31D+S33N+K36D+W56S+E61L | 0.18 -0.02 0.66 0.46 0.19 0.23 | 0.28 | 0 of 18 |

Repeated from above, the 3 best binders with a signal in all replicates:

changes,log10 Kd (nM) by replicate,"log10 Kd (nM), mean",control signals
S25W+S26M+L30D+W56N+A57G+S58Q+S62A,-0.26 -0.57 -0.56 -0.55 -0.60 -0.37,-0.49,0 of 18
S25L+S26Q+L30G+S38A+W56E+A57G+T59Q,-0.24 -0.41 -0.36 -0.45 -0.58 -0.26,-0.38,1 of 18 (1.63)
S25L+S26Q+V29Q+K36T+W56Q+T59Q+S62Q,-0.22 -0.17 -0.45 -0.56 -0.41 -0.33,-0.36,0 of 18